# Assays:
# Homo sapiens = species: Homo sapiens; assay: Binding affinity to IgG (unknown origin) assessed as dissociation rate constant
# [1] = Binding affinity to IgG (unknown origin) assessed as dissociation constant; design: species or system Homo sapiens
Kdiss (Homo sapiens) [s⁻¹],Kd [1] [nM],Structure (SMILES)
0.0116,8.19,CC(=O)N[C@@H](CC(=O)O)C(=O)N[C@H]1CSSC[C@@H](C(=O)N[C@H](C(=O)N[C@@H](Cc2ccccc2)C(=O)N[C@@H](Cc2cnc[nH]2)C(N)=O)[C@@H](C)O)NC(=O)[C@H](Cc2c[nH]c3ccccc23)NC(=O)[C@H](C(C)C)NC(=O)[C@H](CC(C)C)NC(=O)[C@H](CCC(=O)O)NC(=O)CNC(=O)[C@H](CC(C)C)NC(=O)[C@H](Cc2cnc[nH]2)NC(=O)[C@H](Cc2ccc(O)cc2)NC(=O)[C@H](C)NC1=O
0.198,267,CC(=O)N[C@@H](CC(=O)O)C(=O)N[C@H]1CSSC[C@@H](C(=O)N[C@H](C(=O)N[C@@H](Cc2ccccc2)C(=O)N[C@@H](Cc2cnc[nH]2)C(N)=O)[C@@H](C)O)NC(=O)[C@H](Cc2c[nH]c3ccccc23)NC(=O)[C@H](C(C)C)NC(=O)[C@H](CC(C)C)NC(=O)[C@H](CCC(=O)O)NC(=O)CNC(=O)[C@H](CCCCN)NC(=O)[C@H](Cc2cnc[nH]2)NC(=O)[C@H](Cc2ccc(O)cc2)NC(=O)[C@H](C)NC1=O

# From ChEMBL document CHEMBL4311936, “Synthesis and structure-activity relationship studies of IgG-binding peptides focused on the C-terminal histidine residue” (Medchemcomm, 2019)
